Compound activity from PubChem BioAssay.
Eya2 phos inh: qHTS Assay for Inhibitors of the Phosphatase Activity of Eya2 | Protein phosphatase EYA2 (Homo sapiens), O00167 | recombinant Eya2, OMFP fluorescence dephosphorylation (OMFP is methylfluorescein phosphate) | Potency, µM (highest dose often 76.9 µM), inactives show at the top dose activity, negative = inhibition, most hits filed as inhibitors | actives 0.006% (n = 330,000) | AID 488837, 2010; further: on the % scale 0 is the no-effect control and ±100 the full control effect
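Eya2 (0.2 uM) preincubated 10 min at ambient with compound, then OMFP substrate added at 50 uM; 10 min reaction in 50 mM HEPES pH 7.5, 50 mM NaCl, 5 uM MgCl2, 0.05% BSA, 1 mM DTT. Fluorescence read at Ex 485/Em 525 nm.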
Vif-A3G inh: qHTS for Inhibitors of Vif-A3G Interactions: qHTS; AID 602310, 2012; HeLa A3G-eYFP + Vif (tagged APOBEC3G with the HIV-1 protein that degrades it), YFP fluorescence, overnight; DNA dC->dU-editing enzyme APOBEC-3G (Homo sapiens), Q9HC16; Potency, µM (series often up to 46.1 µM), for inactives: top-dose activity, negative = active, most hits filed as inhibitors; actives 0.076% (n = 410,000); further: on the % scale 0 is the no-effect control and ±100 the full control effect; nearly all actives have a fitted effect of over 60% in size
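HeLa cells stably expressing Vif and C-terminally eYFP-tagged A3G, seeded overnight at 37 deg C, then exposed to compound by pintool overnight at 37 deg C. Rise in yellow fluorescence (Ex 488/Em 500-530, Acumen) marks blocked Vif-driven A3G degradation.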
ASM inhibitor: Inhibitors of Secretory Acid Sphingomyelinase (S-ASM): qHTS; placental ASM, HMU-PC fluorogenic substrate, 60 min; actives 0.006% (n = 340,000); Potency, µM (top dose mostly 57.5 µM), for the others: top-dose activity change, negative = inhibition, hits mostly inhibitors
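Human placenta-derived ASM enzyme was preincubated with compound for 10 minutes at room temperature, then given fluorogenic substrate HMU-PC0 (9 uM final) for 60 minutes at 37 °C; a pH 10 stop preceded fluorescence reading at Ex 386/Em 447 nm.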
Vif-A3F inh: qHTS for Inhibitors of Vif-A3F Interactions: qHTS | HeLa A3F-eYFP + Vif (tagged APOBEC3F with the HIV-1 protein that degrades it), YFP fluorescence increase | Potency, µM (series often up to 46.1 µM), inactives show top-dose activity, negative = active | actives 0.2% (n = 390,000); further: % of control where 0% means no effect; nearly all actives have a fitted effect of over 65% in size
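HeLa cells stably expressing A3F-eYFP plus Vif, plated and incubated overnight at 37 deg C, then exposed to compounds overnight at 37 deg C. Blocked degradation read as raised yellow fluorescence (Ex 488/Em 500-530).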
Rango complex inh: qHTS Assay for Inhibitors of Rango (Ran-regulated importin-beta cargo) - Importin beta complex formation. Rango CFP/YFP FRET sensor + importin beta, 45 min. Importin subunit beta-1 (Homo sapiens), Q14974. Potency, µM (titrated, usually from 92.2 µM), for inactives: at the highest dose inhibition of complex formation. actives 0.031% (n = 340,000). AID 540263, 2011; calls by dose curve;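 further: 0% = DMSO wells and 100% = buffer wells lacking importin beta; nearly all actives have a fitted effect of over 15% in size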
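FRET biosensor (snurportin 1 IBB flanked by EYFP and cerulean), 50 nM, with compound 5 min, then 0.125 microM importin beta in PBS, 1 mM DTT, 0.02% Tween-20, 0.1% BSA. CFP/YFP ratio read after 45 min at room temperature; pre-read flags interference.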
Rango release inh: qHTS Assay for Inhibitors of RanGTP induced Rango (Ran-regulated importin-beta cargo) - Importin beta complex dissociation; Snurportin-1 (Homo sapiens) + GTP-binding nuclear protein Ran (Homo sapiens) + Importin …; Biochemical FRET Rango-importin beta, RanGTP-induced dissociation; Potency, µM (top dose mostly 46.1 µM), inactives show at the top dose activity change, negative = inhibition; actives 0.071% (n = 340,000); calls by dose curve; further: % of control where 0% means no effect; nearly all actives have a fitted effect of over 45% in size
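Compounds preincubate 5 min with complex of recombinant Rango and importin beta in PBS with 1 mM DTT. Ran (0.6 uM) loaded with 2 mM GTP plus 0.2 uM RCC1 starts dissociation; FRET is recorded 45 min later.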
The depositor's hits bear a star; ? = inconclusive; . = no result. Compounds with a hit are over-represented: about 0.34% of the library has one in this group of screens. Unless noted, the call rests on the fitted dose curve; in most records, active means well fitted curve in the direction sought with a large enough effect; inconclusive means small, poorly fitted or top-dose-only effect, or another doubt; inactive means no such curve, though single readings can be large; an effect the other way counts as inactive or inconclusive. Potency means the concentration at half of the fitted maximal effect.

The chains behind the UniProt entries cited, without tags or fusion partners.
Importin subunit beta-1 (Homo sapiens), Q14974, UniProt Q14974, whole entry, looked up: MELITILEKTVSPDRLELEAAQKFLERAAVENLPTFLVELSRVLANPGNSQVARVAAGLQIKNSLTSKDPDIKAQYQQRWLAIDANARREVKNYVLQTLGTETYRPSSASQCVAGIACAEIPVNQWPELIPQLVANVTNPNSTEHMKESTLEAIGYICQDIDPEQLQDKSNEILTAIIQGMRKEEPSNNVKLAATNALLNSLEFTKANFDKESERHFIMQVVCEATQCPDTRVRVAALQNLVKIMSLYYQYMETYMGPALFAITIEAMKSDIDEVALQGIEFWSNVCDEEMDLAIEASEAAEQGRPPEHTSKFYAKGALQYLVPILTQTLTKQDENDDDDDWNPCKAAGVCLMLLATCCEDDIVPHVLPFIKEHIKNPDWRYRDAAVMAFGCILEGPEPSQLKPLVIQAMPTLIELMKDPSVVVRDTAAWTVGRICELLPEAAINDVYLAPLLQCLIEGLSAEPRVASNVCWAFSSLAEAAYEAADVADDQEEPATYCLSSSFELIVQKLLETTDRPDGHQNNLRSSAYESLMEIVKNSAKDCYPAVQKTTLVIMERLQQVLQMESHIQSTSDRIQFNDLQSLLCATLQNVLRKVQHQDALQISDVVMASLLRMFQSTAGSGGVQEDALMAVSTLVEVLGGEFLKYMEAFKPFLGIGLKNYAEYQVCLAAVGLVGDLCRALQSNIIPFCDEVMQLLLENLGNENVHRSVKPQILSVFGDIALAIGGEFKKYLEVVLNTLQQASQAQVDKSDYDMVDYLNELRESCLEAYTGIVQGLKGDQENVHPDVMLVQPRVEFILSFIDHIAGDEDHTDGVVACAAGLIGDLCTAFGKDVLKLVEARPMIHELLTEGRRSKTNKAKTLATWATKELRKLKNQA

1: C#CCOCCOCCOCCNc1nc(N2CCN(C(=O)CCCCCCCCCCNC(=O)[C@H]([C@@H](C)CC)n3cc(CCCCCN)nn3)CC2)nc(N2CCN(C(=O)CCCCCCCCCCNC(=O)[C@@H]([C@H](C)CC)n3cc(CCCCCN)nn3)CC2)n1
2: C#CCOCCOCCOCCNc1nc(N2CCN(C(=O)[C@H](CCCN=C(N)N)n3cc(C(N)[C@@H](C)CC)nn3)CC2)nc(N2CCN(C(=O)[C@H](CCC(=O)O)n3cc([C@@H](N)CCCCN)nn3)CC2)n1 (stereo partly specified)
3: C#CCOCCOCCOCCNc1nc(N2CCN(C(=O)CCCCCCCCCCNC(=O)[C@H]([C@@H](C)CC)n3cc(CCCCCN)nn3)CC2)nc(N2CCN(C(=O)CCCCCCCCCCNC(=O)[C@H]([C@@H](C)CC)n3cc(CCCCN=C(N)N)nn3)CC2)n1
4: C#CCOCCOCCOCCNc1nc(N2CCN(C(=O)CCCCCCCCCCNC(=O)[C@H]([C@@H](C)CC)n3cc(CCCCN=C(N)N)nn3)CC2)nc(N2CCN(C(=O)CCCCCCCCCCNC(=O)[C@H](CCCCN)n3cc(C)nn3)CC2)n1
5: C#CCOCCOCCOCCNc1nc(N2CCN(C(=O)[C@H](CCCN=C(N)N)n3cc(C(N)[C@@H](C)CC)nn3)CC2)nc(N2CCN(C(=O)[C@H](CCCCN)n3cc([C@@H](N)[C@H](C)CC)nn3)CC2)n1 (stereo partly specified)
Screen / compound no.,1,2,3,4,5
Rango complex inh,.,?,.,65.1µM*,58µM*
Rango release inh,.,7.8%,.,0.2%,13.9%
Eya2 phos inh,28.2µM*,-16.3%,-19.7%,-14.5%,1.8%
Vif-A3G inh,.,3.0%,.,-22.6%,1.7%
ASM inhibitor,.,126.5%,.,?,-3.3%
Vif-A3F inh,.,2.9%,.,7.0%,-0.8%

6: C#CCOCCOCCOCCNc1nc(N2CCOCC2)nc(N2CCN(C(=O)CCCCCCCCCCNC(=O)[C@@H]([C@H](C)CC)n3cc(CCCCCN)nn3)CC2)n1
7: CC(C)(C)n1ncc2c(=O)n(Cc3c(F)cc(Cl)cc3F)cnc21
8: CCCCCCCCNS(=O)(=O)CCNCc1ccccc1
9: CCCCCCCCNS(=O)(=O)CCNCCc1ccccc1
10: CN(C)/[N+]([O-])=N/Oc1cc(F)c([N+](=O)[O-])cc1[N+](=O)[O-]
Screen / compound no.,6,7,8,9,10
Rango complex inh,-0.2%,.,-1.3%,73.1µM*,.
Rango release inh,-5.8%,.,-10.1%,44.1%,.
Eya2 phos inh,-14.5%,.,.,.,.
Vif-A3G inh,-0.4%,-5.2%,-0.4%,-6.1%,-6.2%
ASM inhibitor,-2.9%,.,-4.9%,-1.7%,.
Vif-A3F inh,-14.7%,.,1.3%,4.7%,.

11: Cc1ccccc1CN1[C@H]2CCCC[C@@H]2OCCS1(=O)=O
12: CCNc1nn2ccccc2c1/C=C(\C#N)C(=O)OCC
13: CC(=O)N1CCN(c2ccc(NCc3ccc(-c4cccc(Cl)c4)o3)cc2)CC1
14: CC/C(=C\c1oc2cc3ccccc3cc2[n+]1CC)Nc1ccccc1
15: CC[n+]1c(/C=C/Nc2ccccc2)oc2ccccc21
Screen / compound no.,11,12,13,14,15
Rango complex inh,.,?,?,2.2%,?
Rango release inh,.,10.3µM*,11.6µM*,-9.9%,-1.3%
Eya2 phos inh,.,2.0%,-3.4%,-1.1%,-1.4%
Vif-A3G inh,-4.1%,0.9%,-0.2%,0.4%,7.94µM*
ASM inhibitor,.,12.2%,33.4%,187.0%,144.9%
Vif-A3F inh,.,-7.7%,-16.3%,-1.6%,11.2µM*

Shown with values under each structure: entries from further up
Every second line gives: Rango complex inh	Rango release inh	Eya2 phos inh	Vif-A3G inh	ASM inhibitor	Vif-A3F inh
#13 CC(=O)N1CCN(c2ccc(NCc3ccc(-c4cccc(Cl)c4)o3)cc2)CC1
→ ?	11.6µM*	-3.4%	-0.2%	33.4%	-16.3%
#14 CC/C(=C\c1oc2cc3ccccc3cc2[n+]1CC)Nc1ccccc1
→ 2.2%	-9.9%	-1.1%	0.4%	187.0%	-1.6%
#15 CC[n+]1c(/C=C/Nc2ccccc2)oc2ccccc21
→ ?	-1.3%	-1.4%	7.94µM*	144.9%	11.2µM*

The list goes on:
16: CC[n+]1c(/C=C/Nc2ccccc2)oc2ccc(OC)cc21
17: CC[n+]1c(/C=C/N(C)c2ccccc2)oc2ccc(F)cc21
18: COc1cc2ncnc(N3CCN(C(=O)Nc4ccc(Oc5ccccc5)cc4)CC3)c2cc1OC
19: COc1ccc(NC(=O)C2=NN(c3ccccc3)C(=O)CC2)cn1
20: C=CCN1C(=O)/C(=C2/Sc3ccc(OC)cc3N2C)SC1=Nc1ccccc1
Screen / compound no.,16,17,18,19,20
Rango complex inh,?,-1.1%,.,51.7µM*,?
Rango release inh,-10.9%,7.4%,.,0.1%,-13.9%
Eya2 phos inh,-2.0%,-8.2%,.,11.6%,-5.7%
Vif-A3G inh,?,3.98µM*,-0.2%,-5.9%,-4.6%
ASM inhibitor,178.0%,26.2%,.,-0.9%,8.2%
Vif-A3F inh,5.62µM*,?,.,-15.5%,-18.0%

21: CCCCN1C(=O)/C(=C2/Sc3ccccc3N2C)S/C1=N\c1ncn[nH]1
22: CCOc1ccc(C(=O)Nc2cc(-c3nc4ccccc4[nH]3)ccc2Cl)cc1[N+](=O)[O-]
23: C=CC[n+]1cccc2cccc(O)c21
24: CCN1/C(=C\C=C(C(C)=O)C(C)=O)Sc2ccccc21
25: CCOC(=O)/C(C#N)=C(C)/C=C1\Sc2ccccc2N1CC
Screen / compound no.,21,22,23,24,25
Rango complex inh,?,-0.6%,.,?,?
Rango release inh,?,0.4%,.,?,?
Eya2 phos inh,4.2%,-1.9%,.,-5.4%,3.9%
Vif-A3G inh,-9.0%,12.6µM*,-7.9%,22.4µM*,-0.7%
ASM inhibitor,8.0%,-4.4%,.,-24.0%,-2.6%
Vif-A3F inh,22.4µM*,-1.8%,.,22.4µM*,?

26: CCC1CCC(C(=O)NC(C(=O)NCCN(CC(C)C)CC(C)C)C(C)C)CC1 (stereo unspecified)
27: CCN1C(=S)SC(=O)C1=C1C=C(C)N(Cc2ccco2)C(C)=C1
28: O=C(/C=C/c1ccncc1)c1cc(Cl)ccc1O
29: CN(C)c1ccc(/C=C/C(=O)c2cc(Cl)ccc2O)cc1
30: CCOC(=O)C[C@H]1c2cc(F)ccc2S(=O)(=O)N1Cc1cc(OC)c(OC)c(OC)c1
Screen / compound no.,26,27,28,29,30
Rango complex inh,.,?,?,?,.
Rango release inh,.,?,-0.6%,?,.
Eya2 phos inh,.,?,4.2%,?,.
Vif-A3G inh,1.9%,11.2µM*,?,-9.0%,1.3%
ASM inhibitor,.,-15.9%,30.6%,-19.4%,.
Vif-A3F inh,5.4%,?,25.1µM*,-10.9%,.

31: COc1ccccc1NS(=O)(=O)c1cc(N=N/C(C(=O)Nc2ccc(Cl)cc2)=C(/C)O)ccc1C
32: CCCCc1ccc(N=N/C(C(=O)Nc2ccc(NC(C)=O)cc2OC)=C(/C)O)cc1
33: Nc1c(C(=O)Nc2ccccc2F)sc2nc(-c3ccco3)ccc12
34: Nc1c(C(=O)Nc2ccccc2F)sc2nc(-c3cccnc3)ccc12
35: COc1ccc(S(=O)(=O)Nc2nc3ccccc3nc2Nc2ccc3c(c2)OCO3)cc1
36: O=S(=O)(Nc1nc2ccccc2nc1Nc1ccc2c(c1)OCCO2)c1cccs1
Screen / compound no.,31,32,33,34,35,36
Rango complex inh,-0.1%,-3.9%,?,?,.,?
Rango release inh,-3.8%,23.4%,?,?,.,?
Eya2 phos inh,-14.9%,19.2%,-3.1%,16.7%,4.1%,-1.3%
Vif-A3G inh,2.9%,-0.6%,?,-12.9%,.,-16.0%
ASM inhibitor,?,22.4µM*,86.8%,20.1%,.,10.8%
Vif-A3F inh,-1.1%,0.1%,22.4µM*,-37.0%,.,11.2µM*
